Consider 1 compound from patent US11040036B2, “Pyruvate kinase activators for use in treating blood disorders” (Agios Pharmaceuticals, Inc., priority 2017, dated 2021).

The chains behind the UniProt entries cited, without tags or fusion partners. Where a name states a change or a piece, a line headed by the entry shows the natural chain unless it says otherwise.
UniProt P30613, whole entry: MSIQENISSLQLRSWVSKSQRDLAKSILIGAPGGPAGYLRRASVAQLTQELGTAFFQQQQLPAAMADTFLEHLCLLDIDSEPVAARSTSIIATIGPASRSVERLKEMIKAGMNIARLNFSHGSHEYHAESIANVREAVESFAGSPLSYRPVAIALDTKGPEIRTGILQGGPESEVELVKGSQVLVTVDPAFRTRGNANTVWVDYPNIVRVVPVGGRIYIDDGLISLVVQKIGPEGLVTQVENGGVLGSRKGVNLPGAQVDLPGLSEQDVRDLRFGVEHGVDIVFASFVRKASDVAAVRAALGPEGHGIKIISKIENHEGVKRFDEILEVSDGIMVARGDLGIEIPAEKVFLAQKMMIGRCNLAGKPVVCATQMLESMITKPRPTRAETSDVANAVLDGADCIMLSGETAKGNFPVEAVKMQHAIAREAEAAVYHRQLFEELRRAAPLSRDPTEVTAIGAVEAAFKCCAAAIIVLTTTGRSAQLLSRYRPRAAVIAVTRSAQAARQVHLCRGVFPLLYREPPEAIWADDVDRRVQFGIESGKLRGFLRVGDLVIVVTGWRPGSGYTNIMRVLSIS
UniProt P30613, whole entry K410E: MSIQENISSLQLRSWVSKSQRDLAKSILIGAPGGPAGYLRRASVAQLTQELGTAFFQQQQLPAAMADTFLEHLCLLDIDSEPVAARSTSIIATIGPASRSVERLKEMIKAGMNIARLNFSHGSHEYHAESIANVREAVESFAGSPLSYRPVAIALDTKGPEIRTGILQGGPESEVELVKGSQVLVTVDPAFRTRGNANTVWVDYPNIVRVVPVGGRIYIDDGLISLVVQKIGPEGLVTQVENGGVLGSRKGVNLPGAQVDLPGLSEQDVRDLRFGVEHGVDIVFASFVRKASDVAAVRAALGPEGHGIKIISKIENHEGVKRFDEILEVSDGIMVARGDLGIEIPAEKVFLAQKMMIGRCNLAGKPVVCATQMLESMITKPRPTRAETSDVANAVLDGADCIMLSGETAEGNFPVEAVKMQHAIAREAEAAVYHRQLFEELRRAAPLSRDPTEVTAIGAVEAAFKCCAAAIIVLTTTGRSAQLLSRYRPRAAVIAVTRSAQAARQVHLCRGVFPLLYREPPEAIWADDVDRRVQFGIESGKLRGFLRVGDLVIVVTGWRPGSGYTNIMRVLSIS
UniProt P30613, whole entry R510Q: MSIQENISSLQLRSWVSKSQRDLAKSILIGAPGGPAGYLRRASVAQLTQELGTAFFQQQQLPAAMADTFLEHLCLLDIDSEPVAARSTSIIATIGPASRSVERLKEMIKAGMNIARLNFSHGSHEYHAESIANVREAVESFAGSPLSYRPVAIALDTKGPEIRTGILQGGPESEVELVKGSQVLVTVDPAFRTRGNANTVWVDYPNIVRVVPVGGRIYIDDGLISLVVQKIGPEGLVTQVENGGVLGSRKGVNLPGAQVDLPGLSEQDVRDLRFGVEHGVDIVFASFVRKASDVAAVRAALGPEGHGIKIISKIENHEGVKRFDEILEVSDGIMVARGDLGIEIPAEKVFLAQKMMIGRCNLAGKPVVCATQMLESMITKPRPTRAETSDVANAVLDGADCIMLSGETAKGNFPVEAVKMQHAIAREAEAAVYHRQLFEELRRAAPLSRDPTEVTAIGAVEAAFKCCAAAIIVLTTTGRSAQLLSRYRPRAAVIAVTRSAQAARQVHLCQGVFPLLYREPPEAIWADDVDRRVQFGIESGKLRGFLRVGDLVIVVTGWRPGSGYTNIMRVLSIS

In general, AC50 refers to the midpoint of the concentration-response curve, whichever way the signal moves.

Structures are written as SMILES.

The target of experiment [1] is T1, wild type PKR (Homo sapiens, UniProt P30613). Nature of the experiment: PKR mutant assay (AC50), wild type PKR. To be noted: read-out: PKR WT AC50; wild type PKR enzyme. As for the experimental part: (§1) Example 11. PKR Mutant Assay
(§2) PKR or PKR mutant enzyme solution was diluted into a reaction mix, which contains 1× buffer (100 mM KCl, 50 mM Tris pH 7.5, 5 mM MgCl2) as well as PEP (cont depends on enzyme), 180 μM NADH, 0.5 units LDH, 1 mM DTT, 0.03% BSA; final assay concentrations after 1.11 fold dilution are indicated.
(§3) 2 μL of test compound was added into wells first, and then 180 μL reaction mix was added.
(§4) Reactions mixture with test compound was assembled except for ADP, and plates were stored for 60 minutes at room temperature.
(§5) 20 uL ADP was added to start reaction at room temperature and reaction progress was measured as changes in absorbance at 340 nm wavelength at room temperature.
(§6) Test Compound Preparation:
(§7) Test compound stock was made at 100× concentration in 100% DMSO (10 mM)
(§8) 1 to 3 dilutions were made for 11 points (i.e. 50 μl of first concentration added to 100 μl 100% DMSO to yield 3.33 mM, 50 μl of this added to 100 μl DMSO to yield 1.11 mM, and so forth) • 1 to 100 dilution into assay (2 μl in 200 μl) yielded starting concentration of 100 μM, decreasing 3 fold for 11 points.
(§9) Assay Buffer: 100 mM KCl, 50 mM Tris 7.5, 5 mM MgCl2, 1 ruM DTT, 0.03% BSA
(§10) Reaction Mixture: PKR mutant enzyme: 40-400 ng/well; ADP: 0.2-1.65 mM; PEP: 0.1-0.5 mM; NADH:180 μM; LDH: 0.5 units (Sigma #59023); DTT: 1 mM; BSA: 0.03%.

Experiment [2] has as its target T1, wild type PKR. The experiment in a line: Cell based ATP assay in purified red blood cells. To be noted: read-out: Cell based ATP assay AC50; RBCs, overnight at 37° C., ATP levels by Cell-Titer-Glo. As for the experimental part:
Example 16. Red Blood Cell (RBC) Purification
Fresh blood drawn from healthy volunteers into K2EDTA tubes was collected. Whole blood was pelleted by spinning at 500 g for 10 minutes. Cut transfusion bag port off of Purecell leukocyte reduction neofilter (Fisher NCO267633) one (1) inch above filter. Attach a 10 ml syringe barrel to the remaining cut tubing attached to neofilter. The plasma layer was removed from the pellet of the whole blood and the pellet was resuspended in 2× volume of phosphate buffered saline (PBS). Transfer 9 ml re-suspended blood cell pellet to prepared 10 ml syringe that is attached to the neofilter. Allow whole blood to gravity flow through filter until all fluid runs through upper tubing into filter disc. Add plunger to the syringe, remove syringe from clamp and invert the filter, then plunge air through the syringe filter system. Using a new 5 ml syringe, remove filtered RBCs from the bag by the syringe port and transfer purified RBCs to a 5 ml snap cap tube that has been incubated on ice. Spin 5 ml snap cap tube at 500 g for 10 minutes at 15 C, aspirate supernatant and resuspend in AGAM (1×PBS, 1% glucose, 170 mg/L adenine, 5.25 g/L mannitol) at a density of 4×10^9 cells/mL.
Example 17. Cell Based ATP Assay
For cell based ATP assays, the compound as described herein was prepared in 100% DMSO as a 10 mM stock. […] ATP levels were read out using Cell-Titer-Glo (Promega).

Experiment [3] addresses PKR R510Q (Homo sapiens, UniProt P30613, R510Q). Nature of the experiment: PKR mutant assay (AC50), PKR R510Q. To be noted: read-out: PK R510Q AC50; PKR R510Q mutant enzyme. As for the experimental part:
as §1, §2, §3, §4, §5, §6, §7, §8, §9, §10

The target in experiment [4] is PKR K410E (Homo sapiens, UniProt P30613, K410E). Nature of the experiment: PKR mutant assay (AC50), PKR K410E. The settings on record: read-out: PKR K410E AC50; PKR K410E mutant enzyme. As for the experimental part:
as §1, §2, §3, §4, §5, §6, §7, §8, §9, §10

As to `CNc1nc(C(F)(F)c2cc[nH]n2)sc1-c1cnn(Cc2cc[nH]n2)c(=O)c1`, the AC50 in experiment [1] is less than 300 nM; in experiment [2], less than 1000 nM; in experiment [3], less than 300 nM; in experiment [4] it was less than 300 nM.
